# Measured vapor pressure values of organic chemicals

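These are experimental values that the OPERA curators gathered from public databases to train and test their QSAR models. One number stands for a compound and property, with no spread given. Method and conditions are not stated for these values. The measured form (salt, isomer or mixture) is not always the one drawn. Unmarked limits or estimates from the upstream databases cannot be ruled out.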

Vapor pressures (log10 mmHg) refer to near room temperature, 15 to 30 °C; higher is more volatile.

compound,log vapor pressure (log10 mmHg)
c1c[nH]cn1,-2.648
O=C(O)CNC(CO)(CO)CO,-4.736
CCCCc1ccc(-c2ccc(OCC)c(F)c2F)cc1,-6.198
C=CC(=O)OCCOC(=O)NC1CC(C)(C)CC(C)(CN=C=O)C1 (configuration not stated),-6.262
CCCCCCOC(=O)C(C)C,0.565
CC1=CC(C)(C)CC(=O)C1,-0.14
O=C1c2ccccc2C(=O)N1C[C@H]1CO1,-5.108
Cc1cccc(CC(C)(C)CO)c1,-1.497
Clc1cc(Cl)c(Oc2c(Cl)cc(Cl)c(Cl)c2Cl)c(Cl)c1Cl,-6.796
CCO[Si](C)(CCCOCC1CO1)OCC (configuration not stated),-2.502
CC(=O)C=CC=C(C)CCC=C(C)C,-2.843
C=CCOC(=O)CC(C)C,1.114
CC(C)=CCCC(C)CCCC(C)C=O (configuration not stated),-2.538
CC(=O)OC(C)CC(C)(C)c1ccccc1 (configuration not stated),-1.475
Clc1cc(Cl)c(Cl)c(-c2ccccc2Cl)c1,-3.866
CC1(C)COC2(CCC3=C(CC[C@@H]4[C@@H]3CC[C@@]3(C)[C@H]4CC[C@]3(O)C#N)C2)OC1,-8.34
CCO[Si](OCC)(OCC)c1ccccc1,-1.648
Brc1ccc(Oc2ccc(Br)c(Br)c2)cc1,-5.115
CC(C)(c1ccccc1)c1ccc(OS(=O)(=O)c2cc([N+]#N)c([O-])c3ccccc23)cc1,-10.04
CCCCOc1ccc(B(O)O)c(F)c1F,-4.954
N=C(N)NCCC[C@H](N)C(=O)O,-8.857
Nc1ccc(N)c(CCO)c1.O=S(=O)(O)O,-10.38
CCCCCC=CCC(CC(=O)O)C(=O)O (configuration not stated),-4.921
O=C(c1ccc(O)cc1)c1ccc(Cl)cc1,-5.686
CCOC(=O)C1=C(C)C=CCC1(C)C,-0.712
CC(=O)OCC=C(C)C,0.367
NC(=O)Nc1ccc(Cl)cc1,-3.783
CC(C)(C)CC(C)(C)c1ccc(O)c(-n2nc3ccccc3n2)c1,-7.509
CC(=O)NNC(C)=O,-5.87
CCCCCCCCCCCCCCCCCCP(=O)(OC)OC,-4.178
CC1=CCCC2(C)C(OC=O)C(C)CCC12C (configuration not stated),-2.444
O=C1COCCO1,-0.965
[Na+].c1ccc2[n-]nnc2c1,-5.084
O=C1CCCCCCCCCCCCCC1,-2.424
CC1(C)[N-]C(=O)NC1=O.[Na+],-5.979
C=C[Si](C)(C)Cl,1.904
CCOCCCO,0.914
FC(F)(F)c1cccc(Cl)c1,0.805
CC(=O)OC1CCCCC1C (configuration not stated),0.106
COC(=O)C(C)(C)O,0.797
CCN1CCOCC1.Cc1ccc(C(=O)CCC(=O)O)cc1.Cc1ccc(C(=O)CCC(=O)O)cc1,-6.409

Extract of 6 entries:

compound,log vapor pressure (log10 mmHg)
Clc1cc(Cl)c(Oc2c(Cl)cc(Cl)c(Cl)c2Cl)c(Cl)c1Cl,-6.796
[Na+].c1ccc2[n-]nnc2c1,-5.084
CCCCc1ccc(-c2ccc(OCC)c(F)c2F)cc1,-6.198
CC1(C)COC2(CCC3=C(CC[C@@H]4[C@@H]3CC[C@@]3(C)[C@H]4CC[C@]3(O)C#N)C2)OC1,-8.34
Nc1ccc(N)c(CCO)c1.O=S(=O)(O)O,-10.38
CCCCCCOC(=O)C(C)C,0.565

Values as listed in the OPERA 2.9 repository of K. Mansouri.